Experimental data taken from ChEMBL document CHEMBL4371059 (J Med Chem, 2019).

By UniProt entry, the sequences of proteins in these tests, tags left out.
UniProt P41145, whole entry: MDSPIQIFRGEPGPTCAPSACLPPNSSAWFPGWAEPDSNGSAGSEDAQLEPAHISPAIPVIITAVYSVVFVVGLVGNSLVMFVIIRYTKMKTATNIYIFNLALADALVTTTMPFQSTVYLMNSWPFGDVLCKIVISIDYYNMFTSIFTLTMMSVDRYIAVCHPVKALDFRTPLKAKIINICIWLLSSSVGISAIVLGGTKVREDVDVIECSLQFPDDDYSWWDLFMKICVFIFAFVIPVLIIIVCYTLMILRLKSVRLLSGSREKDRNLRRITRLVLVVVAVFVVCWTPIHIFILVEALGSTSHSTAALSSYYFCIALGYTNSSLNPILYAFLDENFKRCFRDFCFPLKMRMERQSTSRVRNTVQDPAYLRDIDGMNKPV
UniProt P97266, whole entry: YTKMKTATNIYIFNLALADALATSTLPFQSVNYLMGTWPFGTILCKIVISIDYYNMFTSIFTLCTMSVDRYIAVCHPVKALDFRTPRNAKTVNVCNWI

Target: Kappa-type opioid receptor (Homo sapiens, UniProt P41145)
Experiment: not given
Conditions: not given

Row | SMILES | EC50
1 | CN1CCN(C(=O)Cc2ccc(Cl)c(Cl)c2)[C@H]2[C@@H]1CCC[C@@H]2N1CCCC1 | 3.4 nM
2 | O=C(Cc1ccc(Cl)c(Cl)c1)N1CCN(C(=O)COCCF)[C@H]2CCC[C@H](N3CCCC3)[C@H]21 | 10 nM
3 | CCCCN1CCN(C(=O)Cc2ccc(Cl)c(Cl)c2)[C@@H]2[C@@H](N3CCCC3)CCC[C@@H]21 (racemic) | 6 nM
4 | CCCN1CCN(C(=O)Cc2ccc(Cl)c(Cl)c2)[C@@H]2[C@@H](N3CCCC3)CCC[C@@H]21 (racemic) | 1.6 nM
5 | O=C(Cc1ccc(Cl)c(Cl)c1)N1CCN[C@H]2CCC[C@H](N3CCCC3)[C@H]21 | 1.2 nM
6 | O=C(Cc1ccc(Cl)c(Cl)c1)N1CCN(Cc2ccc(F)cc2)[C@H]2CCC[C@H](N3CCCC3)[C@H]21 | 32 nM
7 | CCN1CCN(C(=O)Cc2ccc(Cl)c(Cl)c2)[C@H]2[C@@H]1CCC[C@@H]2N1CCCC1 | 2 nM

Target: Mu-type opioid receptor (Cavia porcellus, UniProt P97266)
Experiment: Displacement of [3H]DAMGO from MOR in guinea pig brain membranes at 1 uM after 120 mins by scintillation counting method relative to control
Conditions: 2 h

Row | SMILES | inhibition (INH)
8 | O=C(Cc1ccc(Cl)c(Cl)c1)N1CCN(CCF)[C@H]2CCC[C@H](N3CCCC3)[C@H]21 | 12%
9 | O=C(Cc1ccc(Cl)c(Cl)c1)N1CCN(C(=O)COCCF)[C@H]2CCC[C@H](N3CCCC3)[C@H]21 | 0%
10 | O=C(Cc1ccc(Cl)c(Cl)c1)N1CCN(CCCCF)[C@H]2CCC[C@H](N3CCCC3)[C@H]21 | 8%
